Test results as given in PubChem BioAssay AID504326 (The Scripps Research Institute Molecular Screening Center, 2011).
The list shows a part of the results, in another mix than the full data. Calls of active or inactive are those of the source. Rule as the data show it: active = activation above about 18%; inactive = the rest.

Amino acid sequences for entries named in this document (tags omitted).
UniProt P35372, whole entry, looked up: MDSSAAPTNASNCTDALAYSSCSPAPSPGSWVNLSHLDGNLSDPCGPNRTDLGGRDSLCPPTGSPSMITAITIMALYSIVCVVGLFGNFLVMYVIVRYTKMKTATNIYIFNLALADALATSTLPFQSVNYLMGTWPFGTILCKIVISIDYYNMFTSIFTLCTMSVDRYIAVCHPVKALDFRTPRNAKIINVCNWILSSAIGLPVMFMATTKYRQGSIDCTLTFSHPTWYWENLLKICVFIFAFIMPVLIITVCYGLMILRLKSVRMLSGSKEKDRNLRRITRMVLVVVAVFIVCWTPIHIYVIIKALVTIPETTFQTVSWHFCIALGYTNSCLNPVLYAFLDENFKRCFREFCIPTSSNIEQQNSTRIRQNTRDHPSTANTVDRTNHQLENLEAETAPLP
UniProt P41143, whole entry, looked up: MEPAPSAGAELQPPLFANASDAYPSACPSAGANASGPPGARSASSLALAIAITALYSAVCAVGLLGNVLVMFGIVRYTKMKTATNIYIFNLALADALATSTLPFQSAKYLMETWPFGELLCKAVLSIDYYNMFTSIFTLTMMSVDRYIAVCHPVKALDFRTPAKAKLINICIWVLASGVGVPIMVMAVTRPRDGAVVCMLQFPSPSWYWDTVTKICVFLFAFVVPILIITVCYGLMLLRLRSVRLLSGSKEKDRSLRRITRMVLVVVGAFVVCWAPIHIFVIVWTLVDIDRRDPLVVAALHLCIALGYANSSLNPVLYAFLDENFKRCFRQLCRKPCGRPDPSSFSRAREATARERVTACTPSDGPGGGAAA

What follows are molecules tested against Mu-type opioid receptor (Homo sapiens) + Delta-type opioid receptor (Homo sapiens) (UniProt P35372+P41143) (assay: agonists of OPRM1-OPRD1 heterodimerization, primary screen, cell-based, luminescence (AID 504326;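 also: 0% = vehicle-treated cells and 100% = reference agonist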)). Conditions: cells, at 9.3 µM, stronger effect = higher value.

Question: Which activation does the source give for `O=C(Cn1c2[n+](c3ccc(C(F)(F)F)cc31)CCCCC2)Nc1ccc(Br)cc1` here?
Answer: The activation was inactive: -0.24%.

Question: For `CC(O)c1nc2ccccc2n1CC(=O)Nc1ccc(F)cc1Cl` (stereo unspecified), which activation is on record?
Answer: The activation was inactive: -0.65%.

Question: Which activation does the source give for `Nc1nonc1-c1nc2ccccc2n1CC(=O)Nc1ccccc1` here?
Answer: The activation was inactive: -2.21%.

Question: How did the activation turn out when `CCC(=O)Nc1nnc(/C=C/c2ccc(OC)cc2)s1` was run?
Answer: The activation was inactive: -0.96%.

Question: `CC(=O)c1ccc(NC(=O)C2CC(=O)Nc3nc4ccccc4n32)cc1` (stereo unspecified) was tested. Which activation did it give?
Answer: Its activation is inactive: -3.85%.

Question: For `CCN(CC)CCNC(=O)Cn1c(-c2ccccn2)nc2ccccc21`, which activation is on record?
Answer: Its activation is inactive: 0.48%.

Question: With `CCN(CC)CCn1c(=N)n(CCOc2ccccc2)c2ccccc21` as the molecule, how does the activation read?
Answer: The activation was inactive: -1.81%.

Question: With `CCC(=O)N(c1ccccc1)C1CCCCC1` as the molecule, how does the activation read?
Answer: Its activation is inactive: -3.62%.

Question: `CCN(N=Nc1nonc1N)c1nonc1N` was tested. Which activation did it give?
Answer: Its activation is inactive: -2.84%.

Question: Which activation does the source give for `CC(C)(C)NC(=O)Cn1c(SCC(=O)NC2CCCC2)nc2ccccc21` here?
Answer: Its activation is inactive: -0.29%.

Question: With `Cn1c(=O)c2c(nc(NCc3ccccc3)n2CC(=O)NCc2ccccc2)n(C)c1=O` as the molecule, how does the activation read?
Answer: Its activation is inactive: -0.9%.

Question: How did the activation turn out when `O=C(Cn1cnc2ccccc21)Nc1cccc([N+](=O)[O-])c1` was run?
Answer: Its activation is inactive: -2.9%.

Question: Which activation does the source give for `Nc1cccc2ccc([As](=O)(O)O)cc12` here?
Answer: Its activation is inactive: 4.75%.

Question: For `O=C(Cn1c(SCC(=O)N2CCc3ccccc3C2)nc2ccccc21)NC1CCCC1`, which activation is on record?
Answer: Its activation is inactive: -2.38%.

Question: For `Cn1c(=O)n(CC(=O)NCc2cccnc2)c2ccccc21`, which activation is on record?
Answer: Its activation is inactive: -2.93%.

Question: For `CC1CCCCN1C(=O)CSc1nc2ccccc2n1CC(=O)N1CCc2ccccc21` (stereo unspecified), which activation is on record?
Answer: The activation was inactive: -1.45%.

Question: Which activation does the source give for `O=C(CCCCCNC(=O)N1CCn2c1nc1ccccc12)N[C@@H](Cc1ccccc1)C(=O)O` here?
Answer: The activation was inactive: -2.1%.

Question: With `Nc1ncnc2c1ncn2C1OC(CO)C(O)C1N` (stereo unspecified) as the molecule, how does the activation read?
Answer: Its activation is inactive: -1.8%.

Question: `CN1C(=O)Cn2c1nc1ccccc12` was tested. Which activation did it give?
Answer: The activation was inactive: -1.83%.

Question: `CC(C)C[C@H](NC(=O)N1CCn2c1nc1ccccc12)C(=O)N1CCCCC1` was tested. Which activation did it give?
Answer: Its activation is inactive: -1.46%.

Question: How did the activation turn out when `CC(C)CSc1nc2ccccc2n1CC(N)=O` was run?
Answer: The activation was inactive: -1.14%.

Question: How did the activation turn out when `C[C@H](O)[C@@H]1C(=O)N2CCc3ccc(N4CCOCC4)cc3[C@@H]2C[C@@H]1N(C)C(=O)Nc1ccccc1` was run?
Answer: Its activation is inactive: -3.06%.

Question: Which activation does the source give for `CN(CC(=O)Nc1cccc(F)c1)C(=O)Cn1cnc2c1c(=O)n(C)c(=O)n2C` here?
Answer: Its activation is inactive: -1.46%.

Question: `CC(C)NC(=O)Cn1c(SCC(=O)N2CCCCCC2)nc2ccccc21` was tested. Which activation did it give?
Answer: Its activation is inactive: -1.43%.

Question: For `Cc1ccccc1NC(=O)Cn1cnc2c1c(=O)n(C)c(=O)n2C`, which activation is on record?
Answer: Its activation is inactive: -0.66%.

Question: Which activation does the source give for `O=C(Cn1c(COc2ccccc2)nc2ccccc21)Nc1cc(Cl)ccc1Cl` here?
Answer: The activation was inactive: 2.16%.
